Laboratory results: US10597366B2 (dated 2020)

System: 786-O-Hif-Luc cells (luciferase gene driven by multiple HIF responsive elements)
Test: Luciferase Assay
Type: cell-based
Conditions: 24 h, read-out: Mean Luciferease EC50

pEC50: 7.13
SMILES: N#Cc1ccc(Oc2cc(F)cc(F)c2)c2c1[C@H](O)C(F)(F)C2 [Compound 67, (S)-7-(3,5-Difluorophenoxy)-2,2-difluoro-3-hydroxy-2,3-dihydro-1H-indene-4-carbonitrile]

pEC50: −log10 of the molar value.
